Measured values taken from patent publication US20220305115A1 (JANSSEN SCIENCES IRELAND UNLIMITED COMPANY, priority 2019, published 2022).

Assays:
Type in all cases: cell-based
TNFα = experiment: PBMC cytokine profiling assay, TNFα induction; settings: Homo sapiens, 24 h, read-out: TNFα AC50
Procedure: (§1) Compounds were dissolved and stored in DMSO (Sigma-Aldrich, St. Louis, Mo.) at 10 mM concentration.
(§2) Cryopreserved human PBMCs isolated from healthy donors were purchased from StemCell Technologies (Vancouver, Canada). Cell culture medium used was RPMI with L-Glutamine (Mediatech, Manassas, Va.) supplemented with 10% fetal bovine serum (Hyclone, GE Healthcare, Logan, Utah) and Penicillin-Streptomycin (Mediatech). Human TNFα, IL12p40, and IFNα2a 384-well Assay capture plates, standards, buffers and processing reagents were obtained from MesoScale Discovery Technologies (MSD; Rockville, Md.).
(§3) Cryopreserved human PBMCs (1×10e8 cells/ml) were thawed at 37° C. and resuspended in 25 mL warm cell culture medium. The cells were pelleted at 200×g (Beckman Avanti J-E) for 5 min and resuspended in 20 mL of fresh culture media. Cells were counted using a Cellometer (Nexcelcom Bioscience), adjusted to 2×10e6 cells, and incubated for 2 hours in an incubator set at 37° C., 5% CO2 to recover from cryopreservation. […]
(§4) Using a Biomek FX 384 well pipetting station (Beckman), conditioned culture medium (CCM) from the assay plate was transferred to MSD capture plates customized for each cytokine. […] MSD Read Buffer diluted to 2× in deionized water and 35 μL/well was added via Biomek FX instrument. The plates were read immediately in a MSD6000 reader. […]

IL12p40 = experiment: PBMC cytokine profiling assay, IL12-p40 induction; settings: Homo sapiens, 24 h, read-out: IL12p40 AC50
Procedure: as §1, §2, §3, §4

IFNα = experiment: PBMC cytokine profiling assay, IFNα induction; settings: Homo sapiens, 24 h, read-out: IFNα AC50
Procedure: as §1, §2, §3, §4

`CCCC[C@](C)(CO)Nc1nc(N)nc2cc(Cl)cnc12` [Compound 114, (R)-2-((2-amino-7-chloropyrido[3,2-d]pyrimidin-4-yl)amino)-2-methylhexan-1-ol] was tested, and the AC50 (TNFα) was 0.34 µM, the AC50 (IL12p40) was 0.2 µM and the AC50 (IFNα) was 34.1 µM.
